Results taken from ChEMBL document CHEMBL5365464, “Structure-Based Optimization of the Third Generation Type II Macrocycle TRK Inhibitors with Improved Activity against Solvent-Front, xDFG, and Gatekeeper Mutations” (J Med Chem, 2023).

Amino acid sequences for entries named in this document (tags omitted). A change or cut given only in a name is not applied to a line headed by its entry.
UniProt Q15349: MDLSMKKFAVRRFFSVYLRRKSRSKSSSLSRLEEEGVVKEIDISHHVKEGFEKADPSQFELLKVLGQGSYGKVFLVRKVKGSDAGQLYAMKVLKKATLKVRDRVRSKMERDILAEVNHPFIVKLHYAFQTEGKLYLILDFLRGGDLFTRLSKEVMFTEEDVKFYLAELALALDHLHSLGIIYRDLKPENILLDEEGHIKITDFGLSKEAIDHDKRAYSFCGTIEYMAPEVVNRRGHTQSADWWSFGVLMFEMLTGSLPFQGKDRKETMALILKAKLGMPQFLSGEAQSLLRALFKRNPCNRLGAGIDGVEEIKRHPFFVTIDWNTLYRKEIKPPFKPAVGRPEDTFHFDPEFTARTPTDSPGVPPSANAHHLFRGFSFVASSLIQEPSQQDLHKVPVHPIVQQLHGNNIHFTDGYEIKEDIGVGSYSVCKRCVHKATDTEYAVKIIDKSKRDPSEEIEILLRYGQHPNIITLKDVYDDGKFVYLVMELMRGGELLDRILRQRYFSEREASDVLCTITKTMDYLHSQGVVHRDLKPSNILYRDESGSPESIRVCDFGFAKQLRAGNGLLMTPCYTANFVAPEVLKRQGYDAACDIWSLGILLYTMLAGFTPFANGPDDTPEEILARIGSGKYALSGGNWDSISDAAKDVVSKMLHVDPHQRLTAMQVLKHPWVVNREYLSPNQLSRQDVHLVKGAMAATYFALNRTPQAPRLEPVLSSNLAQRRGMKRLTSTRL
UniProt O75582: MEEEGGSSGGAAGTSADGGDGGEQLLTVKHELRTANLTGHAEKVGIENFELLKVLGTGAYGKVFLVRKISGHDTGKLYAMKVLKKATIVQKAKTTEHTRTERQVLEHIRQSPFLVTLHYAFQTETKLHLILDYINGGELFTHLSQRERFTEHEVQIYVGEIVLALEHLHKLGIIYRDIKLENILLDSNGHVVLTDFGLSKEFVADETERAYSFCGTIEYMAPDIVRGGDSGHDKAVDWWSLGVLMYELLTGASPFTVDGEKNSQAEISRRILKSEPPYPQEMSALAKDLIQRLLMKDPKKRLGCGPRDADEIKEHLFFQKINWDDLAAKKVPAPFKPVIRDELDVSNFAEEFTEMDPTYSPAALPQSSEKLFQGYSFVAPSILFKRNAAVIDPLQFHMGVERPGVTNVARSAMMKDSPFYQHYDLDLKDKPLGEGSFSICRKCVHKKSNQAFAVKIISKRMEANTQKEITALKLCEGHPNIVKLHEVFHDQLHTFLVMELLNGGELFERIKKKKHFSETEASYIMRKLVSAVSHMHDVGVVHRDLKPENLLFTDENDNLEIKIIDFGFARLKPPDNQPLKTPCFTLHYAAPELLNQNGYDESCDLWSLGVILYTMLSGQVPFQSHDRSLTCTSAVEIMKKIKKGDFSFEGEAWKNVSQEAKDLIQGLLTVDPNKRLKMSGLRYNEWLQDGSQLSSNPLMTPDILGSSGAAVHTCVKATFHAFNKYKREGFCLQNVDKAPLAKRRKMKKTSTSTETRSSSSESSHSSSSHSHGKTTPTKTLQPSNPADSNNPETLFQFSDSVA
UniProt Q9UK32: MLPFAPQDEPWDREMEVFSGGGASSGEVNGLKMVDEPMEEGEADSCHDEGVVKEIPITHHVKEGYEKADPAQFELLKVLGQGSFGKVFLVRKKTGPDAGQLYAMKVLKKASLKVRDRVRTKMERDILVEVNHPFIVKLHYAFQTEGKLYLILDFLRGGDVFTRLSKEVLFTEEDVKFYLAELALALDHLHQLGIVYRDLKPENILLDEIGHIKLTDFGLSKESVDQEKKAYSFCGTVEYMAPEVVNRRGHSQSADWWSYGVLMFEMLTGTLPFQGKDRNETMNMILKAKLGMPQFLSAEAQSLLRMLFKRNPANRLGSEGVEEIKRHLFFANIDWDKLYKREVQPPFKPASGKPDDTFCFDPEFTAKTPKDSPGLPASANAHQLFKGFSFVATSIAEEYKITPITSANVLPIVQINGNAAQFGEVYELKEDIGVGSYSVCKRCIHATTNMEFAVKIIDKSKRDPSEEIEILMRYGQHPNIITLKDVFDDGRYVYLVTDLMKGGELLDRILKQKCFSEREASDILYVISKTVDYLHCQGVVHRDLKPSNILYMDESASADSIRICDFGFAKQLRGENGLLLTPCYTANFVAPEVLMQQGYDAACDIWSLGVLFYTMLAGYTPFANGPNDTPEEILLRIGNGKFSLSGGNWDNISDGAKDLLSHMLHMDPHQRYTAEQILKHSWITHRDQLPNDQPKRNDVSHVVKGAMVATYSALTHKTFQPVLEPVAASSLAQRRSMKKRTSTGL
UniProt Q15418: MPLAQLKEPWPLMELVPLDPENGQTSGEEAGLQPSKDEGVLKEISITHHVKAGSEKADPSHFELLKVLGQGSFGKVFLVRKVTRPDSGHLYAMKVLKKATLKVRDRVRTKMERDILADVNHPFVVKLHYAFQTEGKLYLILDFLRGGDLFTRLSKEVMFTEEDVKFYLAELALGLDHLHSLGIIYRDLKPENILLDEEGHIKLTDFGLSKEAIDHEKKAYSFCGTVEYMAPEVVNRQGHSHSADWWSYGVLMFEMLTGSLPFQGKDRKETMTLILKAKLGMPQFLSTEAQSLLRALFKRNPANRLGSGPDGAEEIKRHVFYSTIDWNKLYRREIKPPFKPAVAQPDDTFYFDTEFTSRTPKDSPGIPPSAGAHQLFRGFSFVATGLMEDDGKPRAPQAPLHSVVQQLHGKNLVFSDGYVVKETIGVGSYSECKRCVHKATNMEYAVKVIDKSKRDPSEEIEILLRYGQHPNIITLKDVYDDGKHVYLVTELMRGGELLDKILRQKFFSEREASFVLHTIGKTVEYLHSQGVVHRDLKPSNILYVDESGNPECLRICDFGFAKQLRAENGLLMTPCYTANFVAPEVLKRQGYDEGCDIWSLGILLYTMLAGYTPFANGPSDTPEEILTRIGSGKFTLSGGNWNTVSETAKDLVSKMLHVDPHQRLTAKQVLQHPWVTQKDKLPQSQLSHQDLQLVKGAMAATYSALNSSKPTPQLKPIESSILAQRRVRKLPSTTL
UniProt P54756, whole entry: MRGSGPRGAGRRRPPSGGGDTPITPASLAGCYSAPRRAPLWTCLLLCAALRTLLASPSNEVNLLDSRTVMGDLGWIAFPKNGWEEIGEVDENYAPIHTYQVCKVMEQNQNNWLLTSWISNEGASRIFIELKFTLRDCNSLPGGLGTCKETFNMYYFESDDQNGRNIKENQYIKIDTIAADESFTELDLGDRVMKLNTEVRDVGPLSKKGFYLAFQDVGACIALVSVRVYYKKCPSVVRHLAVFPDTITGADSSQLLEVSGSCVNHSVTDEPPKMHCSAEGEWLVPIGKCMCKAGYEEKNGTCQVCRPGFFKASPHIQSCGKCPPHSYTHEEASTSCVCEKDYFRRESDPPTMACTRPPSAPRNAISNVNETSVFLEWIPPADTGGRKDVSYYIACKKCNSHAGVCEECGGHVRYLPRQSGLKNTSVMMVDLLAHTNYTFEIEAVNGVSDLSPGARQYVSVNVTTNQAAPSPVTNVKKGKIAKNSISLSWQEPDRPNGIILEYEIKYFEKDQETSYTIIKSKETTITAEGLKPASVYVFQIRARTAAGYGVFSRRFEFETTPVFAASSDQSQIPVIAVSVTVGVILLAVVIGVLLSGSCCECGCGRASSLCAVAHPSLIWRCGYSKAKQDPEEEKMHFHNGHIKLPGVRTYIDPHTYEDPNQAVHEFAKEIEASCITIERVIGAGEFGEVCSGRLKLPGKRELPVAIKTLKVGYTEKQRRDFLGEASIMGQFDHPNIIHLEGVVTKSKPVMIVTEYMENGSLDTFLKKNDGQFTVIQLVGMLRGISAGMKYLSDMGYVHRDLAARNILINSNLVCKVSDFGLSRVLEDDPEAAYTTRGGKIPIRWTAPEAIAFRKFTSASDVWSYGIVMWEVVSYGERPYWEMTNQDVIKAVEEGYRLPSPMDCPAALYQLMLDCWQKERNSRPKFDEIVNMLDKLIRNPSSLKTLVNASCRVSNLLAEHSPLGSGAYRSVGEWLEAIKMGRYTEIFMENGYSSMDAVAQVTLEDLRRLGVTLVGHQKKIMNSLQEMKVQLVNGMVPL
UniProt Q3UFB7, whole entry, looked up, stated change not applied: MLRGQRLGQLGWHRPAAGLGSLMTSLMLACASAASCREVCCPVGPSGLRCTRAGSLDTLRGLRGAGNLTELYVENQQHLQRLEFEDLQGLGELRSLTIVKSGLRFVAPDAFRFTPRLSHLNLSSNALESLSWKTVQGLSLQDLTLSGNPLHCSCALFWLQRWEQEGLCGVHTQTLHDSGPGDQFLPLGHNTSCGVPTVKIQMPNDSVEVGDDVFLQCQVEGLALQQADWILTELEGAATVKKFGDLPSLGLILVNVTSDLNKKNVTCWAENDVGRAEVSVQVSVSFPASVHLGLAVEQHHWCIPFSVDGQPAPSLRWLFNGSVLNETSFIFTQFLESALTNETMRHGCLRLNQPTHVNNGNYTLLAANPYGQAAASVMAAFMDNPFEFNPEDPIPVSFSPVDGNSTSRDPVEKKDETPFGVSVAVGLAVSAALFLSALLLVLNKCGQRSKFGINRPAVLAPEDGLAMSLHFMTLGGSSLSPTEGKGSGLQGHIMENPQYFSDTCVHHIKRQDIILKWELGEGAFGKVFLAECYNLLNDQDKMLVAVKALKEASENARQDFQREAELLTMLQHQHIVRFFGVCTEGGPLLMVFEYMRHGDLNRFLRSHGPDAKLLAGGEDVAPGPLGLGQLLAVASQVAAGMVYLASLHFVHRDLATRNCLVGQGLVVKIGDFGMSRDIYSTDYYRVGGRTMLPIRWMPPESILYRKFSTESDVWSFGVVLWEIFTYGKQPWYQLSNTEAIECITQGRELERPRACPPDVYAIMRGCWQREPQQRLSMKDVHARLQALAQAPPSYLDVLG
UniProt P36888, whole entry: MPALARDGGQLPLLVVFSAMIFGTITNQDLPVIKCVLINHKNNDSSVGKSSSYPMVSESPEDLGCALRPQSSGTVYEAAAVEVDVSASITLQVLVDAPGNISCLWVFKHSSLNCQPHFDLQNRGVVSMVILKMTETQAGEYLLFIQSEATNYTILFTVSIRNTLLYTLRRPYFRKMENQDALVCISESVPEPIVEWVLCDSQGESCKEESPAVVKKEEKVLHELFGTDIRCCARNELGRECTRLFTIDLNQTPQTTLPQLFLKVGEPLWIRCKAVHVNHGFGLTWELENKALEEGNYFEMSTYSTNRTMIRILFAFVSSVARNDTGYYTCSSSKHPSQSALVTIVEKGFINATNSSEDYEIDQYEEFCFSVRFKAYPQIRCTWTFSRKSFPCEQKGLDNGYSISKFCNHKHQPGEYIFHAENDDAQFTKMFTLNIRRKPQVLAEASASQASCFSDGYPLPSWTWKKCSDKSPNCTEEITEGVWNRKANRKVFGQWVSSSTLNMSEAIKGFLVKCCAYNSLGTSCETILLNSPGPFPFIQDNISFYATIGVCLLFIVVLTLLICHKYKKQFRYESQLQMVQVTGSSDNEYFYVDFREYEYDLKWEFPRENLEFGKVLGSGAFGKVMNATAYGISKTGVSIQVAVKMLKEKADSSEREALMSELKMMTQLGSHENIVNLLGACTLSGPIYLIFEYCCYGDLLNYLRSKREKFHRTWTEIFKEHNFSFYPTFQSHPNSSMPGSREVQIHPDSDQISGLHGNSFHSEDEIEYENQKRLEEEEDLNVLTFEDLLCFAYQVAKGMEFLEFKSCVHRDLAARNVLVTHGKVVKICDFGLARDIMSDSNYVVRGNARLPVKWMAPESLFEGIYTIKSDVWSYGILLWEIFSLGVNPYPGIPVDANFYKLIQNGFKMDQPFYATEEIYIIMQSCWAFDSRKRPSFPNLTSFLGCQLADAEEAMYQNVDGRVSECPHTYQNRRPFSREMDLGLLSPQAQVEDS
UniProt P08631: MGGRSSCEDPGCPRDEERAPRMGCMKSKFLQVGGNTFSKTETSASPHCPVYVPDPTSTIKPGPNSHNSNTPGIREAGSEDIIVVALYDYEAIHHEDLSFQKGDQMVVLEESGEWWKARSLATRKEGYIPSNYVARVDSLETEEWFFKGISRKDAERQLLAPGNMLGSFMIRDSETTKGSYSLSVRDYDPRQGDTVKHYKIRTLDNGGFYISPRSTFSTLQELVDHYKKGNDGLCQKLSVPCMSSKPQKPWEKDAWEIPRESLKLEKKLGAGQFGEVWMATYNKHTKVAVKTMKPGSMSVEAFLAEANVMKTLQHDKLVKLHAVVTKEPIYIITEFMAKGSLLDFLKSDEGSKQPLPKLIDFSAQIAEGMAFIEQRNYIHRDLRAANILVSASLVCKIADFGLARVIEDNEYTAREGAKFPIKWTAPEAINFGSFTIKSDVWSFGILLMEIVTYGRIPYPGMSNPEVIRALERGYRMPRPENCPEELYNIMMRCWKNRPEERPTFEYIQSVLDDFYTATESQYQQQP

What was measured:
[1] = molecular target: Ribosomal protein S6 kinase (Homo sapiens) (UniProt P51812+Q9UBS0+O75676+Q15349+O75582+P23443+Q9UK32+Q15418); settings: dose 1000.0 nM
Ephrin type-A receptor 5 = Ephrin type-A receptor 5 (Homo sapiens, UniProt P54756); settings: dose 1000.0 nM
[2] = molecular target: T1, Tyrosine-protein kinase receptor UFO (Homo sapiens) (UniProt P30530); settings: dose 1000.0 nM
T1 sequence (whole entry): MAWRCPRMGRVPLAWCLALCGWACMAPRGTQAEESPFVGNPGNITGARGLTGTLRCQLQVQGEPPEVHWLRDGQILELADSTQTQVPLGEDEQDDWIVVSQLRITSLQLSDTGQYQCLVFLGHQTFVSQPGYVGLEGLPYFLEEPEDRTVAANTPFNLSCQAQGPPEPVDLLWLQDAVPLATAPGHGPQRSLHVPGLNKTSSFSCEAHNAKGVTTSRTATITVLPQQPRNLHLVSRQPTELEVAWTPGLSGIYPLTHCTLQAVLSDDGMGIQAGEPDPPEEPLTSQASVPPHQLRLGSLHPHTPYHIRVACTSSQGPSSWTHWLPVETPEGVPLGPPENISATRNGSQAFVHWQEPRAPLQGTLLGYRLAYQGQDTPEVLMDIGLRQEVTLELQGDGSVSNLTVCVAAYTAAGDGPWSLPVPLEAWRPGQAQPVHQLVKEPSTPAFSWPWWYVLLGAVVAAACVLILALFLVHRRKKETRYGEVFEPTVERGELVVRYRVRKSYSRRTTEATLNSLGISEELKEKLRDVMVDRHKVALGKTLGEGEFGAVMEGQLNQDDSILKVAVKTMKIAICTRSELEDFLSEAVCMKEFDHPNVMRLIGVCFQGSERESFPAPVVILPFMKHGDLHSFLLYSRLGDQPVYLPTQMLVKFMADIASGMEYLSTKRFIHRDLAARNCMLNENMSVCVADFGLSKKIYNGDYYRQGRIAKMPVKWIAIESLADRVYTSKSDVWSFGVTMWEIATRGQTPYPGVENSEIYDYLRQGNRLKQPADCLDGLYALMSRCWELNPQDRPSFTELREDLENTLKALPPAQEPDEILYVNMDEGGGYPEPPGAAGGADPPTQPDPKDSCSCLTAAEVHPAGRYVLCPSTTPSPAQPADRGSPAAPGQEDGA

[3] = molecular target: T2, Tyrosine-protein kinase Mer (Homo sapiens) (UniProt Q12866); settings: dose 1000.0 nM
T2 sequence (whole entry): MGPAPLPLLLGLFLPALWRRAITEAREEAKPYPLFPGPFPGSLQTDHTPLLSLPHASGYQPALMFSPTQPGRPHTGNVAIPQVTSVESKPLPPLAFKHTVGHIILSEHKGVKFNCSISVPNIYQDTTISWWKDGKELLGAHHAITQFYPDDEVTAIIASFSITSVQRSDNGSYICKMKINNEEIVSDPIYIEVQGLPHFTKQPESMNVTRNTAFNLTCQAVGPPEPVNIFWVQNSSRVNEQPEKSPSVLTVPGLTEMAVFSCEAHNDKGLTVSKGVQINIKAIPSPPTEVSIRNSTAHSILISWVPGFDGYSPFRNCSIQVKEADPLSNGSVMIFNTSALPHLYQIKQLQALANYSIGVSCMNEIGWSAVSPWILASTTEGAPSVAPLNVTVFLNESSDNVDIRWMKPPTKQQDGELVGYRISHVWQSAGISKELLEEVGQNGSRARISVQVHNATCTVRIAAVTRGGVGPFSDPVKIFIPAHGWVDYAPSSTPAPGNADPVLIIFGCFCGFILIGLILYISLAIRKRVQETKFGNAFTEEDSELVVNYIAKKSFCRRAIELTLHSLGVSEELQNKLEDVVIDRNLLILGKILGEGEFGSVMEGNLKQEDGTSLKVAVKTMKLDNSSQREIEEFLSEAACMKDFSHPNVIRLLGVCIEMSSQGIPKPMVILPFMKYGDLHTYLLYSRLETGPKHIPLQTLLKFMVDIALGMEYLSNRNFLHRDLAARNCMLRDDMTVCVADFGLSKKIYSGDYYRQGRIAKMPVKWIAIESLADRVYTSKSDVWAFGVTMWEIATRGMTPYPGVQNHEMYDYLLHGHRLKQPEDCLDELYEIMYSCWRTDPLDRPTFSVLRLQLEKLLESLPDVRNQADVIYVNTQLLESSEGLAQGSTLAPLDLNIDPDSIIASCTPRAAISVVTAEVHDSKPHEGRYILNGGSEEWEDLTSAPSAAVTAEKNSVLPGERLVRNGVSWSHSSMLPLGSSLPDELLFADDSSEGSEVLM

[4] = test system: High affinity nerve growth factor receptor (Mus musculus), Q3UFB7 [UNDEFINED MUTATION]; settings: BaF3, dose <= 300.0 nM, time 6.0 hrs
Angiopoietin-1 receptor = Angiopoietin-1 receptor (Homo sapiens, UniProt Q02763); settings: dose 1000.0 nM
[5] = molecular target: Receptor-type tyrosine-protein kinase FLT3 (Homo sapiens, UniProt P36888); settings: dose 1000.0 nM
[6] = molecular target: Proto-oncogene tyrosine-protein kinase receptor Ret (Homo sapiens, UniProt P07949); settings: dose 1000.0 nM
[7] = test system: High affinity nerve growth factor receptor (Mus musculus), Q3UFB7 [UNDEFINED MUTATION]; settings: BaF3, dose <= 300.0 nM, time 6.0 hrs; remark: listed apart in the source
[8] = molecular target: Vascular endothelial growth factor receptor 3 (Homo sapiens, UniProt P35916); settings: dose 1000.0 nM
Ephrin type-A receptor 7 = Ephrin type-A receptor 7 (Homo sapiens, UniProt Q15375); settings: dose 1000.0 nM
[9] = molecular target: Cyclin-dependent kinase 14 (Homo sapiens, UniProt O94921); settings: dose 1000.0 nM
Ephrin type-A receptor 2 = Ephrin type-A receptor 2 (Homo sapiens, UniProt P29317); settings: dose 1000.0 nM
[10] = test system: High affinity nerve growth factor receptor (Mus musculus), Q3UFB7 [UNDEFINED MUTATION]; settings: BaF3, dose <= 300.0 nM, time 6.0 hrs; remark: listed apart in the source
[11] = molecular target: T3, Muscle, skeletal receptor tyrosine-protein kinase (Homo sapiens) (UniProt O15146); settings: dose 1000.0 nM
T3 sequence (whole entry): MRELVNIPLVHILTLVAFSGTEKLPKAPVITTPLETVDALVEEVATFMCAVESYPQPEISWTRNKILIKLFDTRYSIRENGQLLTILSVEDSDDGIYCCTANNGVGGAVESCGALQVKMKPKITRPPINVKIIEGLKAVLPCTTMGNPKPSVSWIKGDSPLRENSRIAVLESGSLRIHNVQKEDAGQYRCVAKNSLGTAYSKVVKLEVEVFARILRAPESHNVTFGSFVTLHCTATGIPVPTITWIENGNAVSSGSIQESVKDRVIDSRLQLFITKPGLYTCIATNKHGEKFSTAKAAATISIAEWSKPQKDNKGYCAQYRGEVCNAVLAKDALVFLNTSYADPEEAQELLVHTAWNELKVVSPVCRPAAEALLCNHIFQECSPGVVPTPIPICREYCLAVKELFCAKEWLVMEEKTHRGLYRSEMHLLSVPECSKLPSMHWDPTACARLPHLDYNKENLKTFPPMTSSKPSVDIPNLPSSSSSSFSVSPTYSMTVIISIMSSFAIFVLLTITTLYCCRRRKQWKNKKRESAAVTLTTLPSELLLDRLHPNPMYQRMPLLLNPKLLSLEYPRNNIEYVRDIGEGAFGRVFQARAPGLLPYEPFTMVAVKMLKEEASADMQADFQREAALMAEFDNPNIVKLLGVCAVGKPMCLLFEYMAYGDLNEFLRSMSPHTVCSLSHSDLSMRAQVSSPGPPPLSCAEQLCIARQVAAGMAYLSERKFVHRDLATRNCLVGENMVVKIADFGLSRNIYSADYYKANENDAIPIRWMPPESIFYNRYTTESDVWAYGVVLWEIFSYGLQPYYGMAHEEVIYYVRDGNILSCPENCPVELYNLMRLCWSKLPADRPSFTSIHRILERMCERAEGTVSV

[12] = molecular target: Tyrosine-protein kinase HCK (Homo sapiens, UniProt P08631); settings: dose 1000.0 nM
[13] = test system: High affinity nerve growth factor receptor (Mus musculus), Q3UFB7 [UNDEFINED MUTATION]; settings: BaF3, dose <= 300.0 nM, time 6.0 hrs; remark: listed apart in the source
[14] = molecular target: High affinity nerve growth factor receptor (Mus musculus) (UniProt Q3UFB7); settings: BaF3, dose <= 300.0 nM, time 6.0 hrs
[15] = molecular target: Vascular endothelial growth factor receptor 2 (Homo sapiens, UniProt P35968); settings: dose 1000.0 nM
[16] = molecular target: Epithelial discoidin domain-containing receptor 1 (Homo sapiens, UniProt Q08345); settings: dose 1000.0 nM

SMILES: Cc1c2cc(cc1C(=O)Nc1cc(CN3CCN(C)CC3)cc(C3CC3)c1)OCCCCCCCNC(=O)c1ccc3ncc(n3n1)C#C2
- inhibition [1]: 9%
- inhibition (Ephrin type-A receptor 5): 0%
- inhibition [2]: 4%
- inhibition [3]: 2%
- inhibition [4]: Dose-Dependent Effect
- inhibition (Angiopoietin-1 receptor): 0%
- inhibition [5]: 8%
- inhibition [6]: 8%
- inhibition [7]: Dose-Dependent Effect
- inhibition [8]: 6%
- inhibition (Ephrin type-A receptor 7): 3%
- inhibition [9]: 7%
- inhibition (Ephrin type-A receptor 2): -4%
- inhibition [10]: Dose-Dependent Effect
- inhibition [11]: 1%
- inhibition [12]: 3%
- inhibition [13]: Dose-Dependent Effect
- inhibition [14]: Dose-Dependent Effect
- inhibition [15]: 1%
- inhibition [16]: 4%
